Measured values as given in ChEMBL document CHEMBL5523739, “NN1213 - A Potent, Long-Acting, and Selective Analog of Human Amylin” (J Med Chem, 2024).

Key:
[1] = molecular target: T1, Amylin receptor AMY3; CALCR/RAMP3 (Rattus norvegicus, UniProt P32214+Q9JJ73); assay: Displacement of 125I-rat amylin from rat AMY3R complex of CTR/RAMP3 expressed in Baby hamster kidney cell membrane incubated for 120 mins by SPA method; assay type: cell membranes
T1 sequence (P32214 whole entry): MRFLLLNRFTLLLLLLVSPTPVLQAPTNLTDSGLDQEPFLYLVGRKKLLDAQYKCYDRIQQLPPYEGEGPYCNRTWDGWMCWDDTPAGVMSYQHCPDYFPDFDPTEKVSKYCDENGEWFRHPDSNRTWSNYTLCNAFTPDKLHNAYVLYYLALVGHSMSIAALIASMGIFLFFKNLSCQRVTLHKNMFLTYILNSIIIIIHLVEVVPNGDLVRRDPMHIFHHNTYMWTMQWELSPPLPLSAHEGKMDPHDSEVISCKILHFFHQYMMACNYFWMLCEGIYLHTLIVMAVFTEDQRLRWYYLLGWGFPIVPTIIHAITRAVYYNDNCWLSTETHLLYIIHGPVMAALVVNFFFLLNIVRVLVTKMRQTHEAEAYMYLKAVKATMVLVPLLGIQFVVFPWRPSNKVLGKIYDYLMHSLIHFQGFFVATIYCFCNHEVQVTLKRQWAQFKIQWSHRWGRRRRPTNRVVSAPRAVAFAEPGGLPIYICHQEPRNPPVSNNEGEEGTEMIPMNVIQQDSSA
T1 sequence (Q9JJ73 whole entry): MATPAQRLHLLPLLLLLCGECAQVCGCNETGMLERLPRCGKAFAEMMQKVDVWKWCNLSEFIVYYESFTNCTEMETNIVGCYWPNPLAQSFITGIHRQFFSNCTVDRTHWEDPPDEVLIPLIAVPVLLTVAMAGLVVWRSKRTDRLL

[2] = molecular target: T2, Amylin receptor AMY3; CALCR/RAMP3 (Homo sapiens, UniProt O60896+P30988); assay: Displacement of 125I-rat amylin from human AMY3R complex of CTR/RAMP3 expressed in Baby hamster kidney cell membrane incubated for 120 mins by SPA method; assay type: cell membranes
T2 sequence (P30988 whole entry): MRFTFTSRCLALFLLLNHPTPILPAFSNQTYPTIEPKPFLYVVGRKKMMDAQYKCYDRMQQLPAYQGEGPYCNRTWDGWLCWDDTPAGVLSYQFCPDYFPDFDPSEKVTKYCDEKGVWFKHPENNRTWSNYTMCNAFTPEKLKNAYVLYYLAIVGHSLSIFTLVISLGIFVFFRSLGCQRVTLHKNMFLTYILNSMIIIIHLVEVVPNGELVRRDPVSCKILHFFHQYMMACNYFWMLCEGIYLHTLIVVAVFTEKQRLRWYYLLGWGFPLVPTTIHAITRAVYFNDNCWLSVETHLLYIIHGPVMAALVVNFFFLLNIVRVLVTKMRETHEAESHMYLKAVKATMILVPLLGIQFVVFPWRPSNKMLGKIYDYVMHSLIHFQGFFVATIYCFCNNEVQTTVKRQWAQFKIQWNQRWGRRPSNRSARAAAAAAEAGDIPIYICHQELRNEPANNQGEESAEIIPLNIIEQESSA
T2 sequence (O60896 whole entry): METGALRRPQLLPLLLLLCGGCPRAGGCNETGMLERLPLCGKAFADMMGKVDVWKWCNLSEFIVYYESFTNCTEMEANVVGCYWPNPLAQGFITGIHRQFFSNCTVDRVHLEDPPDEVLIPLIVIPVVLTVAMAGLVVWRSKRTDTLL

Calcitonin receptor [3] = molecular target: T3, Calcitonin receptor (Rattus norvegicus, UniProt P32214); assay: Displacement of 125I-Calcitonin from rat CTR expressed in Baby hamster kidney cell membrane incubated for 120 mins by SPA method; assay type: cell membranes
T3 sequence (P32214 whole entry): T1 sequence (P32214 whole entry)

Calcitonin receptor [4] = molecular target: T4, Calcitonin receptor (Homo sapiens, UniProt P30988); assay: Displacement of 125I-Calcitonin from human CTR expressed in Baby hamster kidney cell membrane incubated for 120 mins by SPA method; assay type: cell membranes
T4 sequence (P30988 whole entry): T2 sequence (P30988 whole entry)

[5] = molecular target: T2, Amylin receptor AMY3; CALCR/RAMP3; assay: Agonist activity at human AMY3R complex of CTR/RAMP3 transduced in human HeLa cells by cAMP assay; assay type: functional, cell-based

| EC50 [5] | Compound | IC50 [1] | IC50 [2] | IC50 (Calcitonin receptor [3]) | IC50 (Calcitonin receptor [4]) |
| --- | --- | --- | --- | --- | --- |
| – | CC[C@H](C)[C@H](NC(=O)[C@H](C)NC(=O)CNC(=O)[C@H](Cc1ccccc1)NC(=O)[C@H](CC(N)=O)NC(=O)[C@@H]1CCCN1C(=O)[C@H](CO)NC(=O)[C@H](CO)NC(=O)[C@H](Cc1cnc[nH]1)NC(=O)[C@H](CCCNC(=N)N)NC(=O)[C@H](CC(C)C)NC(=O)[C@H](Cc1ccccc1)NC(=O)[C@H](CC(N)=O)NC(=O)[C@H](C)NC(=O)[C@H](CC(C)C)NC(=O)[C@H](CCCNC(=N)N)NC(=O)[C@H](CCC(N)=O)NC(=O)[C@@H](NC(=O)[C@H](C)NC(=O)[C@@H]1CSSC[C@H](NC(=O)[C@@H](N)CCCCN)C(=O)N[C@@H](CC(N)=O)C(=O)N[C@@H]([C@@H](C)O)C(=O)N[C@@H](C)C(=O)N[C@@H]([C@@H](C)O)C(=O)N1)[C@@H](C)O)C(=O)N1CCC[C@H]1C(=O)N[C@@H](CO)C(=O)N[C@@H](CO)C(=O)N[C@H](C(=O)N[C@@H](CC(N)=O)C(=O)N[C@H](C(=O)NCC(=O)N[C@@H](CO)C(=O)N[C@@H](CCCNC(=N)N)C(=O)N[C@H](C(=O)N[C@@H](Cc1ccc(O)cc1)C(N)=O)[C@@H](C)O)C(C)C)[C@@H](C)O | 0.372 nM | 0.213 nM | 32.7 nM | 21.1 nM |
| 0.0759 nM | CC[C@H](C)[C@H](NC(=O)[C@H](C)NC(=O)CNC(=O)[C@H](Cc1ccccc1)NC(=O)[C@H](CC(N)=O)NC(=O)[C@@H]1CCCN1C(=O)[C@H](CO)NC(=O)[C@H](CO)NC(=O)[C@H](Cc1c[nH]cn1)NC(=O)[C@H](CCCNC(=N)N)NC(=O)[C@H](CC(C)C)NC(=O)[C@H](Cc1ccccc1)NC(=O)[C@H](CC(=O)O)NC(=O)[C@H](C)NC(=O)[C@H](CC(C)C)NC(=O)[C@H](CCCNC(=N)N)NC(=O)[C@H](CCC(N)=O)NC(=O)[C@@H](NC(=O)[C@H](C)NC(=O)[C@@H]1CSSC[C@H](NC(=O)[C@@H](N)CCCCN)C(=O)N[C@@H](CC(N)=O)C(=O)N[C@@H]([C@@H](C)O)C(=O)N[C@@H](C)C(=O)N[C@@H]([C@@H](C)O)C(=O)N1)[C@@H](C)O)C(=O)N1CCC[C@H]1C(=O)N[C@@H](CO)C(=O)N[C@@H](CO)C(=O)N[C@H](C(=O)N[C@@H](CC(N)=O)C(=O)N[C@H](C(=O)NCC(=O)N[C@@H](CO)C(=O)N[C@@H](CCCNC(=N)N)C(=O)N[C@H](C(=O)N[C@@H](Cc1ccc(O)cc1)C(N)=O)[C@@H](C)O)C(C)C)[C@@H](C)O | – | – | – | – |
